Data reported in patent US20220387414A1, “TREATING LIVER DISORDERS” (Terns Pharmaceuticals Inc., priority 2019, published 2022).

Assays:
[1] = test system: FXR-regulated, inflammatory and fibrosis gene expression in the liver; assay: Liver gene expression in NASH mouse model (RT-qPCR, RNA-seq); assay type: in vivo, C57/BL6J mice; settings: NASH mice liver, 30 mg/kg
[2] = Tissue distribution of radiolabeled (14C) Compound I after oral dose; assay type: in vivo, Long-Evans rats; settings: as summarised in the description from the examples
Method: Radiolabeled (^14C) Compound I was also administered to Long-Evans rats at an oral dose of 5 mg/kg (100 μCi/kg). Plasma, liver, small intestine, cecum, kidney, lung, heart and skin tissue samples were collected up to 168 hours, and the amount of radioactive material at various time points was measured.

## Cn1cc(C(=O)O)c2ccc(N3CCC(OCc4c(-c5c(Cl)cccc5Cl)noc4C4CC4)CC3)cc21 [Compound I, 6-{4-[5-cyclopropyl-3-(2,6-dichloro-phenyl)-isoxazol-4-ylmethoxy]-piperidin-1-yl}-1-methyl-1H-indole-3-carboxylic acid]
[1]
  BSEP expression (CPM) Relative to Vehicle: 5.1
  OST-B expression (CPM) Relative to Vehicle: 135.7
  SHP expression (CPM) Relative to Vehicle: 4.6
[2]
  concentration in the liver relative to plasma, kidney, lungs, heart, and skin: approximately 20 fold
